{"sequences": {"note": "By UniProt entry, the sequences of proteins in these tests, tags left out.", "UniProt Q13639, whole entry, species assumed": "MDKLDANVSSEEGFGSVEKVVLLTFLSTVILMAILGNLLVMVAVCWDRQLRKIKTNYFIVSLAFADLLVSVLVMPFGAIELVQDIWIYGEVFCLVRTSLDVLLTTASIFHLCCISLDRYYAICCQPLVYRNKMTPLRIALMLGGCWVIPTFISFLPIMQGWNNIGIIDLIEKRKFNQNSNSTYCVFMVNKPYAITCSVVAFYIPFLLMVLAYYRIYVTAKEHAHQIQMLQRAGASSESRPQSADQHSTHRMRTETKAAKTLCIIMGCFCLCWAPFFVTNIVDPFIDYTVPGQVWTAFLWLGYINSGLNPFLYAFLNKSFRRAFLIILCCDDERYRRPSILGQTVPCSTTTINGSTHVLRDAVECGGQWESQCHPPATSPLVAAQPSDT"}, "source": "patent US10434181B2", "about": "“Oligomer-containing benzamide-based compounds” (Nektar Therapeutics, priority 2012, dated 2019)", "key": {"[1]": {"molecular_target": "5HT4B receptors (serotonin 4B receptors) (Homo sapiens, UniProt Q13639)", "test": "Competition binding assay (serotonin 4B receptors), [3H]GR113808", "details": "[3H]GR113808 competition, HEK 293 membranes expressing 5HT4B"}, "[2]": {"molecular_target": "serotonin 4 receptor (5HT4) (Homo sapiens, UniProt Q13639)", "test": "cAMP accumulation assay (serotonin 4 receptors)", "details": "CHO-K1 cells stably expressing 5HT4"}}}
{"smiles": "CCN(CC)CCNC(=O)c1cc(Cl)c(N)cc1OC", "note": "[Metoclopramide, N-(2-diethylaminoethyl)-2-methoxy-4-amino-5-chlorobenzamide, reference compound]", "values": [{"measurement": "IC50", "setting": "[1]; IC50 [M]", "value": "1.52e-05", "unit": "M"}, {"measurement": "IC50", "setting": "[1]; IC50 [nM]", "value": "1.52e-05", "unit": "M"}, {"measurement": "IC50", "setting": "[2]; IC50 [M]", "value": "1.02e-06", "unit": "M"}, {"measurement": "IC50", "setting": "[2]; IC50 [μM]", "value": "1.02e-06", "unit": "M"}]}
